Results: ChEMBL document CHEMBL1641602, “Quinolones as HCV NS5B polymerase inhibitors” (Bioorg Med Chem Lett, 2011)

Assay: Inhibition of Hepatitis C virus 1b BK NS5B Cdelta21 polymerase by scintillation proximity assay
Design: species or system Hepatitis C virus (isolate BK)
Outline: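 Started with [3H]UTP, 1 µM UTP, 250 nM 5'-biotin-oligo(rU12), 0.8 µg/ml poly(rA). Stopped at 120 min with streptavidin SPA beads, tRNA and EDTA, then CsCl added before counting.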

IC50: 16 nM
SMILES: CN1CCN(c2cc3c(cc2F)c(=O)c(C(=O)OCc2ccc(Cl)cc2)cn3Cc2ccc(S(C)(=O)=O)cc2)CC1
